Results reported in PubChem BioAssay (NCI).
Some structures show a salt or complex split into parts, the way the source records it.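 The compound was tested at five concentrations on cells cultured in 96-well plates, with a 48-hour exposure period. At the GI50, growth is halved. TGI is the concentration that stops growth completely.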

Assays:
Assay in all cases: DTP human tumour cell line panel, 48 h
[1] = tested on: SK-MEL-28 melanoma
[2] = tested on: OVCAR-5 ovarian
[3] = tested on: SF-539 CNS
[4] = tested on: HCC-2998 colon
[5] = tested on: HT29 colon
[6] = tested on: OVCAR-3 ovarian
[7] = tested on: RPMI-8226 leukemia
[8] = tested on: SN12C renal
[9] = tested on: HOP-92 NSCLC
[10] = tested on: M14 melanoma
[11] = tested on: SK-MEL-5 melanoma
[12] = tested on: NCI-H322M lung
[13] = tested on: A498 renal
[14] = tested on: BT-549 breast
[15] = tested on: NCI-H23 lung
[16] = tested on: OVCAR-8 ovarian
[17] = tested on: SK-MEL-2 melanoma
[18] = tested on: ACHN renal
[19] = tested on: HCT-116 colon
[20] = tested on: IGROV1 ovarian
[21] = tested on: NCI-H460 lung
[22] = tested on: U251 CNS
[23] = tested on: A549 NSCLC
[24] = tested on: CAKI-1 renal
[25] = tested on: PC-3 prostate
[26] = tested on: OVCAR-4 ovarian
[27] = tested on: UO-31 renal
[28] = tested on: NCI/ADR-RES ovarian
[29] = tested on: SNB-75 CNS
[30] = tested on: EKVX NSCLC
[31] = tested on: MALME-3M melanoma
[32] = tested on: HS 578T breast
[33] = tested on: KM12 colon
[34] = tested on: DU-145 prostate
[35] = tested on: SK-OV-3 ovarian
[36] = tested on: SF-268 CNS
[37] = tested on: HCT-15 colon
[38] = tested on: RXF 393 renal
[39] = tested on: COLO 205 colon
[40] = tested on: T-47D breast
[41] = tested on: HOP-62 NSCLC
[42] = tested on: UACC-257 melanoma
[43] = tested on: SNB-19 CNS
[44] = tested on: NCI-H226 lung
[45] = tested on: SW-620 colon
[46] = tested on: UACC-62 melanoma
[47] = tested on: NCI-H522 lung
[48] = tested on: SF-295 CNS
[49] = tested on: LOX IMVI melanoma
[50] = tested on: 786-0 renal
[51] = tested on: MCF7 breast
[52] = tested on: MDA-MB-231 breast
[53] = tested on: MDA-MB-435
[54] = tested on: TK-10 renal

In the case of `O=[N+]([O-])c1cc([N+](=O)[O-])c(O)c([N+](=O)[O-])c1.c1ccc([I+]c2ccccc2)cc1`, the TGI [1] is reported as over 100 µM, the TGI [2] is reported as over 100 µM and the TGI [3] is reported as over 100 µM. For the same compound, the TGI [4] was over 100 µM, the TGI [5] was over 100 µM and the TGI [6] was over 100 µM. The TGI [7] was over 100 µM, the TGI [8] was over 100 µM and the TGI [9] was over 100 µM. For the same compound, the TGI [10] was over 100 µM, the TGI [11] was 19.4 µM and the TGI [12] was over 100 µM. The TGI [13] was over 100 µM, the TGI [14] was over 100 µM and the TGI [15] was over 100 µM. It also gave a TGI [16] of over 100 µM, a TGI [17] of over 100 µM and a TGI [18] of over 100 µM. It also gave a TGI [19] of over 100 µM, a TGI [20] of over 100 µM and a TGI [21] of 22.3 µM. The TGI [22] was over 100 µM, the TGI [23] was over 100 µM and the TGI [24] was 8.2 µM. For the same compound, the TGI [25] was over 100 µM, the TGI [26] was over 100 µM and the TGI [27] was over 100 µM. It also gave a TGI [28] of over 100 µM, a GI50 [29] of 15.6 µM and a TGI [29] of over 100 µM. It also gave a TGI [30] of 32.4 µM, a TGI [31] of 97.2 µM and a TGI [32] of over 100 µM. For the same compound, the TGI [33] was over 100 µM, the TGI [34] was over 100 µM and the TGI [35] was over 100 µM. The TGI [36] was over 100 µM, the TGI [37] was over 100 µM and the TGI [38] was over 100 µM. For the same compound, the TGI [39] was over 100 µM, the TGI [40] was over 100 µM and the TGI [41] was 52.3 µM. The TGI [42] was over 100 µM, the TGI [43] was over 100 µM and the TGI [44] was over 100 µM. The TGI [45] was over 100 µM, the GI50 [46] was 29.8 µM and the TGI [46] was over 100 µM. The TGI [47] was 85.5 µM, the TGI [48] was 14.3 µM and the TGI [49] was over 100 µM. For the same compound, the TGI [50] was over 100 µM, the TGI [51] was over 100 µM and the TGI [52] was over 100 µM. It also gave a TGI [53] of over 100 µM and a TGI [54] of over 100 µM.
